Tests used:
[1] = target: T1, Amine oxidase [flavin-containing] B (Homo sapiens, UniProt P27338)
[2] = target: T1, Amine oxidase [flavin-containing] B; experiment: Inhibition of recombinant human MAO-B using kynuramine as substrate assessed as decrease in 4-hydroxyquinoline production incubated for 20 mins by fluorescence spectrophotometry
[3] = Cytotoxicity against rat PC12 cells assessed as cell survival at 20 uM after 72 hrs by MTT assay relative to control; assay type: toxicity, PC-12; settings: read-out: Survival
[4] = Cytotoxicity against rat PC12 cells assessed as cell survival at 100 uM after 24 hrs by MTT assay relative to control; assay type: toxicity, PC-12; settings: read-out: Survival
[5] = organism: Homo sapiens; experiment: Selectivity index, ratio of IC50 for recombinant human MAO-A to IC50 for recombinant human MAO-B incubated for 20 mins

Sequences of proteins named here, by UniProt entry; tags and fusion partners are left off.
UniProt P27338, whole entry: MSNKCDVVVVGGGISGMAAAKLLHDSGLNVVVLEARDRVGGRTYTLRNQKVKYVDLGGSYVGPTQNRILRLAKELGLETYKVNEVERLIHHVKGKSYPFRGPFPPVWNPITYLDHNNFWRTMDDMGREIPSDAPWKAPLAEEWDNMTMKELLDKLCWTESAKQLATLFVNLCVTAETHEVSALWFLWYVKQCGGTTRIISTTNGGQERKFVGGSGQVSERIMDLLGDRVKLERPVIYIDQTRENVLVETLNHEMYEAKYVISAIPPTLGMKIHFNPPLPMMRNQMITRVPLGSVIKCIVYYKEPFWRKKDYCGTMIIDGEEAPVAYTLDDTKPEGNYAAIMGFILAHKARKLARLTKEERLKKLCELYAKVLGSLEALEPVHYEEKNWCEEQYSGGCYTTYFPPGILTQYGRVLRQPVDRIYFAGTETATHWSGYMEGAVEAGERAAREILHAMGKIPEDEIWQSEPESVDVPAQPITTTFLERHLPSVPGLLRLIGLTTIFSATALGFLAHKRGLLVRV

Structure (SMILES)	IC50 [1] [nM]	other results
O=C1OCc2cc(OCc3ccc(F)cc3)ccc21	8.35	–
O=C1OCc2cc(OCc3ccc(Cl)cc3)ccc21	13.9	–
O=C1CCc2ccc(OCc3cccc(Cl)c3)cc2N1	14.3	–
CC(=O)c1cccc(OCc2ccc(Cl)cc2)c1	10.5	–
CC1(C)CC(=O)c2ccc(OCc3ccc(Cl)cc3)cc2O1	39.2	–
CC(=O)c1ccc(OCc2ccc(F)cc2)cc1O	28.4	IC50 [2]: 3 nM
O=c1ccoc2cc(OCc3ccc(C(F)(F)F)cc3)ccc12	27.8	–
O=c1ccoc2ccc(OCc3ccc(F)cc3)cc12	15.6	–
CC(=O)c1ccc(OCc2cccc(Cl)c2)cc1	25.3	–
CC(=O)c1cccc(OCc2ccc(Br)cc2)c1	92.4	–
CC(=O)c1ccc(OCc2ccc(F)cc2)cc1	15.5	–
O=C1CCCc2cc(OCc3ccc(Cl)cc3)ccc21	7.21	–
O=c1ccoc2ccc(OCc3ccc(Cl)cc3)cc12	25.3	–
CC(=O)c1ccc(OCc2cccc(Cl)c2)cc1F	13.2	viability at 72 h, 20 µM [3]: 132%
CC(=O)c1ccc(OCc2ccc(Cl)cc2)cc1O	42.7	–
CC(=O)c1ccc(OCc2ccc(Cl)cc2)cc1F	52.9	–
O=C1OCc2cc(OCc3ccc(C(F)(F)F)cc3)ccc21	6.41	viability at 24 h, 100 µM [4]: 81.9%
O=c1ccoc2cc(OCc3cccc(Cl)c3)ccc12	43.4	Ratio IC50 [5]: 89
CC(=O)c1ccc(OCc2cccc(Cl)c2)cc1O	25.1	Ratio IC50 [5]: 13600; IC50 [2]: 1.3 nM
O=C1CCOc2cc(OCc3ccc(Cl)cc3)ccc21	42	–
O=C1CCc2ccc(OCc3cccc(Br)c3)cc2N1	8.17	–
CC(=O)c1ccc(OCc2ccc(F)cc2)cc1F	56.9	–
CC1(C)CC(=O)c2ccc(OCc3ccc(F)cc3)cc2O1	12.8	–
O=c1ccoc2cc(OCc3ccc(F)cc3)ccc12	63.2	–
CC(=O)c1ccc(OCc2cccc(F)c2)cc1F	96.5	–
CC(=O)c1ccc(OCc2cccc(F)c2)cc1O	41.4	Ratio IC50 [5]: 17800; IC50 [2]: 2.8 nM

— ChEMBL document CHEMBL3862011, “Neuroprotective effects of benzyloxy substituted small molecule monoamine oxidase B inhibitors in Parkinson's disease” (Bioorg Med Chem, 2016)
